Assay results reported in patent US20220213145A1 (Bicycle, published 2022).

T1: human CD137 protein (direct binding assay) (human, UniProt Q07011 24-186, limits assumed)
T1 construct: Soluble CD137 protein titrated from 3 uM in the fluorescence polarisation assay; also called hCD137; TNFRSF9
T1 sequence (looked up): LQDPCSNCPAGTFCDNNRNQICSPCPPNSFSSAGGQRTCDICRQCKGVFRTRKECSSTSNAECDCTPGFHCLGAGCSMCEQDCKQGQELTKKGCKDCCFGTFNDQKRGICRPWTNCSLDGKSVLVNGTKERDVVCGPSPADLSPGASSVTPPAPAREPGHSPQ

T2: Recombinant human CD137 homotrimer (R&D systems), biotinylated (human, UniProt Q07011 24-186, limits assumed, biotinylated with EZ-Link Sulfo-NHS-LC-LC-Biotin)
T2 construct: also called biotinylated CD137
T2 sequence (looked up): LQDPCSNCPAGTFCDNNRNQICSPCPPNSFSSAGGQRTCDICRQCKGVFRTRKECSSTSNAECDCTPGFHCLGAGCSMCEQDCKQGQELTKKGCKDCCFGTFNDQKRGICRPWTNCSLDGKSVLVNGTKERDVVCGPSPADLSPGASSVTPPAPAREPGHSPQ


What was measured:
[1] = target: T1, human CD137 protein (direct binding …); assay: FP direct binding
[2] = target: T2, Recombinant human CD137 homotrimer (R&D …); assay: SPR (Biacore T200), biotinylated CD137 on streptavidin
[3] = target: T1, human CD137 protein (direct binding …); assay: FP direct binding; remark: listed apart in the source
[4] = target: T1, human CD137 protein (direct binding …); assay: FP direct binding; remark: listed apart in the source

Binder | Kd [3] | also measured
ACIEEKQYCFADPYXCA ([PEG3]-ACIEE-DLys-QYCFADPY[Nle]CA; fluorescein-labelled; cyclised on TATA, also called [PEG3]-(74-01-04) D-Lys4 Nle12) [BCY7165] | – | Kd [1]: 0.024 µM
ACIEEGQYCFADPYMCA ([Ac]ACIEEGQYCFADPYMCA; cyclised on TATA, also called Ac-A-(74-01-04)-A) [BCY9273] | – | Kd [2]: 0.108 µM
ACIEEGQYCYADPYMCA ([B-Ala]-Sar5-ACIEEGQYCYADPYMCA; fluorescein-labelled; cyclised on TATA, also called (B-Ala)-Sar5-(74-01-01)) [BCY635] | 0.126 µM | –
ACIEEGQYCYRDMYMCA ([B-Ala]-Sar5-ACIEEGQYCYRDMYMCA; fluorescein-labelled; cyclised on TATA, also called (B-Ala)-Sar5-(74-01-00)) [BCY633] | 1.84 µM | –
ACIEEGQYCYADPYMCA (ACIEEGQYCYADPYMCA-Sar6-K(Fl); fluorescein-labelled; cyclised on TATA, also called (74-01-01)-Sar6-K(Fl)) [BCY636] | 0.124 µM | –
ACIEEGQYCHADPYYCA (ACIEEGQYCHADPYYCA-Sar6-K; fluorescein-labelled; cyclised on TATA, also called (74-01-06)-Sar6-K) [BCY643] | 0.148 µM | –
ACIEEGQYCYADPYLCA (ACIEEGQYCYADPYLCA-Sar6-K; fluorescein-labelled; cyclised on TATA, also called (74-01-09)-Sar6-K) [BCY646] | 0.105 µM | –
ACIEEGQYCFADPYACA ([PEG3]-ACIEEGQYCFADPYACA; fluorescein-labelled; cyclised on TATA, also called [PEG3]-(74-01-04) Ala12) [BCY7293] | – | Kd [4]: 0.417 µM
ACIEEGQYCFADPYLCA (ACIEEGQYCFADPYLCA-Sar6-K; fluorescein-labelled; cyclised on TATA, also called (74-01-11)-Sar6-K) [BCY650] | 0.0865 µM | –
ACIEEGQYCFADPYMCA (G-Sar5-ACIEEGQYCFADPYMCA; fluorescein-labelled; cyclised on TATA, also called G-Sar5-(74-01-04)) [BCY641] | 0.152 µM | –
ACIEEGQYCYADPYYCA ([B-Ala]-Sar5-ACIEEGQYCYADPYYCA; fluorescein-labelled; cyclised on TATA, also called (B-Ala)-Sar5-(74-01-02)) [BCY637] | 0.122 µM | –
ACIEEGQYCFADPYFCA ([PEG3]ACIEEGQYCFADPYFCA; fluorescein-labelled; cyclised on TATA, also called [PEG3]-(74-01-04) Phe12) [BCY7214] | – | Kd [1]: 0.0501 µM
ACIEEGQYCFADPYMCA (ACIEEGQYCFADPYMCA-Sar6-K; fluorescein-labelled; cyclised on TATA, also called (74-01-04)-Sar6-K) [BCY640] | 0.084 µM | –
ACIEEGQYCYADPYYCA (ACIEEGQYCYADPYYCA-Sar6-K; fluorescein-labelled; cyclised on TATA, also called (74-01-02)-Sar6-K) [BCY638] | 0.193 µM | –
ACIEEGQYCYSDPYYCA (ACIEEGQYCYSDPYYCA-Sar6-K; fluorescein-labelled; cyclised on TATA, also called (74-01-03)-Sar6-K) [BCY639] | 0.229 µM | –
ACIEEGQYCFADPYICA ([PEG3]ACIEEGQYCFADPYICA; fluorescein-labelled; cyclised on TATA, also called [PEG3]-(74-01-04)Ile12) [BCY7212] | – | Kd [1]: 0.14 µM
ACIEEGQYCHADPYFCA (ACIEEGQYCHADPYFCA-Sar6-K; fluorescein-labelled; cyclised on TATA, also called (74-01-07)-Sar6-K) [BCY644] | 0.145 µM | –
ACIEEGQYCYSDPYLCA (ACIEEGQYCYSDPYLCA-Sar6-K; fluorescein-labelled; cyclised on TATA, also called (74-01-10)-Sar6-K) [BCY649] | 0.207 µM | –

The next lines start with results.

Kd [3] | Binder | also measured
0.288 µM | CIEEGQYCFADPYKC (Ac-CIEEGQYCFADPYK(Peg12)C; fluorescein-labelled; cyclised on TATA, also called Ac-(74-01-04)Lys12(PEG12)) [BCY7249] | –
1.34 µM | ACDIGPPYCYRDMYMCA (ACDIGPPYCYRDMYMCA-Sar6-K; fluorescein-labelled; cyclised on TATA, also called (74-01-16)-Sar6-K) [BCY655] | –
0.183 µM | ACLDEGPYCFADPYFCA (ACLDEGPYCFADPYFCA-Sar6-K; fluorescein-labelled; cyclised on TATA, also called (74-01-20-N002)-Sar6-K) [BCY7253] | –
0.777 µM | CIEEGQYCFKDPYMC (Ac-CIEEGQYCFK(Peg12)DPYMC; fluorescein-labelled; cyclised on TATA, also called Ac-(74-01-04)Lys8(PEG12)) [BCY7245] | –
0.296 µM | CIEEGQYCKADPYMC (Ac-CIEEGQYCK(Peg12)ADPYMC; fluorescein-labelled; cyclised on TATA, also called Ac-(74-01-04)Lys7(PEG12)) [BCY7244] | –
0.142 µM | ACIEEGQYCHADPYMCA (ACIEEGQYCHADPYMCA-Sar6-K; fluorescein-labelled; cyclised on TATA, also called (74-01-13)-Sar6-K) [BCY652] | –
0.383 µM | ACIEEGQYCHADPQMCA (ACIEEGQYCHADPQMCA-Sar6-K; fluorescein-labelled; cyclised on TATA, also called (74-01-14)-Sar6-K) [BCY653] | –
0.136 µM | ACINEGPYCFADPYMCA (ACINEGPYCFADPYMCA-Sar6-K; fluorescein-labelled; cyclised on TATA, also called (74-01-21-N002)-Sar6-K) [BCY7255] | –
0.412 µM | ACIEPGPFCYADPYMCNRV (G-Sar5-ACIEPGPFCYADPYMCNRV; fluorescein-labelled; cyclised on TATA, also called (B-Ala)-Sar5-(74-19-00-T01)) [BCY661] | –

Like-named read-outs stand apart in the source and are kept apart here.
